Measurements taken from the Kinase Knowledgebase extract (Sharma et al. 2016).

By UniProt entry, the sequences of proteins in these tests, tags left out.
UniProt P00533, whole entry, looked up: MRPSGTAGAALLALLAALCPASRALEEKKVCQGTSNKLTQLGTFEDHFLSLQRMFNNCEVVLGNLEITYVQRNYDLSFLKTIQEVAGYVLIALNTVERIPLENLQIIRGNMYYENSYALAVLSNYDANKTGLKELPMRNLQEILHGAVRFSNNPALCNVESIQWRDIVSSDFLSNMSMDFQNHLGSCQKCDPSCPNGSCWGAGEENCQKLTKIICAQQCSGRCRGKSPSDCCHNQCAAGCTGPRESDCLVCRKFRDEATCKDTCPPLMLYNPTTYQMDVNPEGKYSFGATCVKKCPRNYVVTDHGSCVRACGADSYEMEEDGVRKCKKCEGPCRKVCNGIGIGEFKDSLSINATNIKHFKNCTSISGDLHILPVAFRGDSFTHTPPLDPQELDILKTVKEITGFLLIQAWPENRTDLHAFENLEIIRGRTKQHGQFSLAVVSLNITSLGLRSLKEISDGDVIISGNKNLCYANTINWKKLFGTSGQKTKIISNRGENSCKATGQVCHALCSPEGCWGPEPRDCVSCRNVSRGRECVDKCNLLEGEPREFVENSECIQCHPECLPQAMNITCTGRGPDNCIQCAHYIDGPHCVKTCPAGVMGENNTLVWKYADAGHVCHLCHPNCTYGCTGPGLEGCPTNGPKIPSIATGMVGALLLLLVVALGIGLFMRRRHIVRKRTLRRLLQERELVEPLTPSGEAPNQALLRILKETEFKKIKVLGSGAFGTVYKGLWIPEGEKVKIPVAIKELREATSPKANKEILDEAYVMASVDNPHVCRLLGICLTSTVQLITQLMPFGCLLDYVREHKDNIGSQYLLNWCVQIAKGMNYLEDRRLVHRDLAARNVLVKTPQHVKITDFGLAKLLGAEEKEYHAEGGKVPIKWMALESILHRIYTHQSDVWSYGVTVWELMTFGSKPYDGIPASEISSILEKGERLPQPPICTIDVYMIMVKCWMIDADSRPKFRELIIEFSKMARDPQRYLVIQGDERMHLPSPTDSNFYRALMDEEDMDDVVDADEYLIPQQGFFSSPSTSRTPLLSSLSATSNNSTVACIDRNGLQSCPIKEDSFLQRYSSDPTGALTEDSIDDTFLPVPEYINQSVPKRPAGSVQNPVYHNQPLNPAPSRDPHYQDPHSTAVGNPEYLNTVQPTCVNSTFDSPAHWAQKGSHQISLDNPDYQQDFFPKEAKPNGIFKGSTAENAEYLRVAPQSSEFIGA

Target: EGFR (human) (UniProt P00533)

- IC50: 6.3 nM
Compound: COc1cc2ncnc(Nc3cccc(Cl)c3)c2cc1OC
